The EC50 is the concentration needed to bring the measured effect to its halfway point. A lower EC50 goes with a more potent agent.

Experiment [1] concerns the target T1, constitutively active ETB receptor (ETB-L3.43Q) (Homo sapiens, UniProt P24530, L192Q).
T1 sequence (P24530 27-442 L192Q): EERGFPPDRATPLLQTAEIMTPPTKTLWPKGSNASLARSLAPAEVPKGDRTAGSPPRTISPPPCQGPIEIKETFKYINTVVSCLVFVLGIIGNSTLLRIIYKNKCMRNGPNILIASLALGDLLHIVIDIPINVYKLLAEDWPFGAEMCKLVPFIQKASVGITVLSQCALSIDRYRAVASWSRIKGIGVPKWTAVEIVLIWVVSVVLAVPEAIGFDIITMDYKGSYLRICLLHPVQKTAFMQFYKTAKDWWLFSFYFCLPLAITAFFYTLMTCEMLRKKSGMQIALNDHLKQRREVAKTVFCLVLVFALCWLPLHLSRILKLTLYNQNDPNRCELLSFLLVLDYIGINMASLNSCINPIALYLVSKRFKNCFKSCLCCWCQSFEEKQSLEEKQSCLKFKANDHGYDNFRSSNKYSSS
As to the kind of experiment: TGFα shedding assay, antagonist activity against ET-1 (0.5 nM)-induced AP-TGFα release.

The target in another experiment is T2, ETB receptor (wild type) (Homo sapiens, UniProt P24530).
T2 construct: expressed in transfected cells; host or cells: HEK293A
T2 sequence (P24530 27-442): T1 sequence (P24530 27-442 L192Q) with Q166L
The description is as above. The class given is cell-based. As to conditions: for IC50: ET-1 0.5 nM. The protocol:
The TGFα shedding assay, which measures the activation of Gq/11 and G12/13 signaling, was performed as described previously. Briefly, a plasmid encoding an ETB construct with an internal FLAG epitope tag or an ETA construct was transfected, together with a plasmid encoding alkaline phosphatase (AP)-tagged TGFα (AP-TGFα), into HEK293A cells by using a polyethylenimine (PEI) transfection reagent (1 µg ETR plasmid, 2.5 µg AP-TGFα plasmid, and 25 µl of 1 mg per ml PEI solution per 10-cm culture dish). […] The AP-TGFα release signals were fitted to a four-parameter sigmoidal concentration-response curve, using the Prism 7 software (GraphPad Prism), and the pEC50 (equal to −log10 EC50) and Emax values were obtained.

Experiment [2] addresses T3, thermostabilized ETB receptor (ETB-Y4) (Homo sapiens, UniProt P24530, I381A/K270A/R124Y/S342A).
T3 sequence (P24530 27-442 R124Y/K270A/S342A/I381A): T1 sequence (P24530 27-442 L192Q) with R98Y, Q166L, K244A, S316A, I355A
Described as above.

For experiment [3], the target named is T4, ETB-L192^3.43Q (constitutively active ETB receptor) (Homo sapiens, UniProt P24530, L192Q).
T4 sequence (P24530 27-442 L192Q): T1 sequence (P24530 27-442 L192Q)
Description: TGFα shedding assay, inverse agonist activity (4 h incubation).

Each structure is given as a SMILES string. Changes are numbered by the printed parent chain. Read-outs that look alike come from different tables or passages of the source.

`Cc1cc(C)cc(C(=O)N(C)C(Cc2ccc(-c3ccccc3)cc2)C(=O)NC(Cc2c[nH]c3ccccc23)C(=O)O)c1` (stereo not drawn) [IRL2500]: the IC50 was 22 nM in experiment [1] (IC50, Supplementary Fig. 5d); 21.4 nM in experiment [1] (pIC50 ± SEM, Supplementary Fig. 5d); 35.5 nM at ETB receptor (wild type) (Fig. 1a, HEK293 cells, read-out: pIC50 ± SEM ETB (converted)); 52 nM on ETB receptor (wild type) (Supplementary Fig. 5d, ETB (WT), read-out: IC50); 21.4 nM on ETB receptor (wild type) (Table 2, ETB-WT, n=6, read-out: pIC50 (mean ± SEM) (converted)); 89 nM in experiment [2]. Further, the Kb at ETB receptor (wild type) (Table 2, ETB-WT, read-out: pKB (mean ± SEM) (converted)) is 2.4 nM. The concentration giving a half-maximal response (EC50) was 0.92 nM in experiment [3] (EC50, Table 3, reduction of basal activity for inverse agonists) and 0.933 nM in experiment [3] (pEC50 (mean ± SEM), Table 3).

The values above are taken from paper PMC6588608 (Communications Biology, 2019).
